Laboratory results from PMC8810934.

Target: F-actin from rabbit muscle (rabbit) (UniProt P68135)
Test: co-sedimentation; 2 µM ABD with F-actin (3–160 µM), 30 min at room temperature in F-buffer (10 mM Tris pH 7.5, 150 mM NaCl, 0.5 mM ATP, 2 mM MgCl2, 1 mM DTT); spun at 50,000 RPM, 30 min, 25 °C; unbound ABD in the supernatant quantified from Coomassie gels; one site specific binding fit with Bmax constrained to 1

| Kd | Substance |
| --- | --- |
| 234 µM | N-terminally truncated human β-III-spectrin ABD with L253P mutation (from UniProt O15020 52-2390) (domain or fragment) |
| 73.6 µM | wild-type human β-III-spectrin actin-binding domain (ABD) with intact N-terminus (domain or fragment) |
